Screening results as filed in PubChem.
ClpP mod: qHTS Assay for Activators of ClpP | ATP-dependent Clp protease proteolytic subunit (Bacillus subtilis (strain 168)), P80244 | purified B. subtilis ClpP, FRET peptide cleavage, 20 min | Potency, µM (doses to about 57.5 µM) | 1.9% of 340,000 active | AID 651965, 2013; active means well fitted falling curve with a large enough effect; inconclusive means small, poorly fitted or top-dose-only effect; inactive means no such curve, though single readings can be large or run the other way; further: the source files actives as falling curves though it sought activators and does not explain the sign; nearly all actives have a fitted effect of over 65% in size
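Purified B. subtilis ClpP, 10 microg/mL final in Tris/HCl pH8 with KCl, BSA, glycerol and Tween-20, cleaved an Abz/nitrotyrosine-quenched decapeptide. Fluorescence (ex 320, em 430) was read at 0 and 20 min at room temperature. Delta was normalized to 5.8 microM ADEP and DMSO/no-enzyme controls.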
Nrf2 block: Nrf2 pathway inhibition; AID 504444; A549 ARE-Fluc reporter, luciferase luminescence, 18-24 h; Potency, µM (top dose mostly 46 µM), usual class: inhibitors; 2.1% of 360,000 active; further: nearly all actives have a fitted effect of over 60% in size
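Nrf2 function is reported as luminescence of an ARE-controlled luciferase in A549 cells. Compounds were tested at several concentrations, and a CellTiter-Fluor read on the same wells flagged cytotoxicity.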
TCR activator: activators of T cell receptors; 330,000 tested, under 10 active; Potency, µM (titrated, usually from 9.22 µM), most hits filed as activators; primary human leukocytes, anti-CD3, IL-2 HTRF, 48 h
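Primary human leukocytes incubated 48 hr with anti-CD3 beads plus compound, without co-stimulation. Secreted IL-2 measured by HTRF (europium cryptate/d2 anti-IL-2 pair, 320 nm excitation, 665 nm emission).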
Nrf2 ARE act: activates Nrf2 signaling; AREc32 ARE-luciferase reporter (MCF7-derived line), luminescence, 24 h; 0.31% of 410,000 active; AID 624171; Potency, µM (highest dose often 46.1 µM), most hits filed as activators; further: nearly all actives have a fitted effect of over 65% in size
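Nrf2 activation is followed as ARE-luciferase induction in the AREc32 line after one day of compound treatment; luminescence is read with Steady-Glo.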
miR-21 reporter: miR-21 reporter, rising signal | 340,000 tested, under 10 active | AID 2288 | HeLa miR-21 FLuc reporter, luciferase, 48 h | Potency, µM (titrated, usually from 38.3 µM); active = well fitted rising curve with a large enough effect; inconclusive = small, poorly fitted or top-dose-only effect; inactive = no such curve, though single readings can be large or run the other way;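 further: miR-21 action dims this reporter so a rising signal means less miR-21 action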
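Compounds were titrated across several concentrations (up to approximately 40 uM) and incubated 48 hours with HeLa miR-21-FLuc reporter cells (miR-21 target sequence downstream of FLuc, endogenous miR-21). Readout was firefly luciferase luminescence after lytic detection reagent.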
A549 tox-1: kills or reduces viability of A549 cells in Nrf2 counter-screen; Potency, µM (series often up to 46 µM), hits mostly inhibitors; 0.16% of 390,000 active; AID 504648; A549 ARE-Fluc cells, CellTiter-Fluor viability, 18-24 h
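Cytotoxicity counterscreen: CellTiter-Fluor fluorescence was measured in A549 ARE_Fluc cells after 18-24 h of compound exposure in a concentration series. The subsequent BugLite luminescent read reports ARE-luciferase activity.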
FLuc enzyme inh: firefly luciferase inhibition, Nrf2 hit validation; purified firefly luciferase, luminescence inhibition; Potency, µM (top dose mostly 57.5 µM), most hits filed as inhibitors; AID 720522; shares compounds with Nrf2 block; 4% of 1,400 active; further: nearly all actives have a fitted effect of over 65% in size
A549 tox-2: counter-screen for Nrf2 inhibitors: cytotoxicity in A549 ARE cells. shares compounds with Nrf2 block. A549 ARE-Fluc cells, cytotoxicity counterscreen. Potency, µM (series often up to 46.1 µM), usual class: inhibitors. 2% of 1,400 active. AID 720523;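 further: cells exposed to compounds for 18 to 24 hours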
Nrf2 ARE inh: confirmation of Nrf2 inhibitors in A549 ARE reporter cells; shares compounds with Nrf2 block; A549 ARE-firefly luciferase reporter, luminescence; Potency, µM (highest dose often 46.1 µM), hits mostly inhibitors; 74% of 1,400 active; AID 720524; further: nearly all actives have a fitted effect of over 65% in size
ClpP inh valid: validation of B. subtilis ClpP protease hits (inhibitors) | shares compounds with ClpP mod | AID 743245 | purified B. subtilis ClpP, FRET-FV substrate cleavage, 20 min | Potency, µM (top dose mostly 57.5 µM), actives largely listed as inhibitors | 40% of 470 active; further: nearly all actives have a fitted effect of over 70% in size
Of the large screens only hits and unclear results are named; the others gave an inactive call (follow-up assays come after a bar, where they were run). A selection: hits, their analogues and other compounds. The true share with any hit is near 3.7%. Unless noted, the call rests on the fitted dose curve; in most records, active means well fitted curve in the direction sought with a large enough effect; inconclusive means small, poorly fitted or top-dose-only effect, or another doubt; inactive means no such curve, though single readings can be large; an effect the other way counts as inactive or inconclusive.

Nc1c(C(=O)Nc2ccc(Cl)c(C(F)(F)F)c2)sc2nc3c(cc12)N1CCC3CC1	Nrf2 block 6.5µM, miR-21 reporter inconclusive (no result: TCR activator) | FLuc enzyme inh inactive | A549 tox-2 inconclusive | Nrf2 ARE inh 7.3µM
O=c1[nH]/c(=C\c2ccc(N(CCCl)CCCl)cc2)c(=O)[nH]/c1=C\c1ccc(N(CCCl)CCCl)cc1	none (no result: Nrf2 block, TCR activator, Nrf2 ARE act, miR-21 reporter, A549 tox-1)
c1ccc(CCN2CCCC2)cc1	none (no result: Nrf2 block, TCR activator, Nrf2 ARE act, miR-21 reporter, A549 tox-1)
CN1CC=C(c2c[nH]c3ccccc23)CC1	Nrf2 block 1.8µM, A549 tox-1 inconclusive | FLuc enzyme inh inactive | A549 tox-2 inactive | Nrf2 ARE inh 16µM
CC(=NNC(=S)N1CC2CCC(CC2)C1)c1nccs1	Nrf2 block 1.5µM, A549 tox-1 inconclusive (no result: miR-21 reporter) | FLuc enzyme inh 19µM | A549 tox-2 inconclusive | Nrf2 ARE inh 2.9µM
CC12CC(=O)C3C(CCC4CC(=O)C=CC43C)C1CCC2=O (stereo not given)	Nrf2 block 3.3µM (no result: ClpP mod, miR-21 reporter) | FLuc enzyme inh inactive | A549 tox-2 inactive | Nrf2 ARE inh 2.6µM
C[C@]12CCC3C(CC[C@H]4[C@@H](O)[C@H](O)CC[C@]34C)C1CCC2=O (stereo not given in full)	none (no result: ClpP mod, miR-21 reporter)
CC[C@@H](O)C[C@H]1CCC[C@@]2(C[C@@H]3OC(=O)/C=C/[C@@](C)(O)[C@@H](O)[C@H](C)[C@@H](O)[C@H](OC4CCC(N(C)C)C(C)O4)[C@@H](O)[C@](C)(O)CCCCC/C=C/[C@@H]4CC(C)(C)O[C@@]4(O)C[C@H](O2)[C@H]3C)O1 (stereo not given in full)	Nrf2 block 0.0058µM, A549 tox-1 inconclusive (no result: miR-21 reporter) | FLuc enzyme inh inactive | A549 tox-2 inconclusive | Nrf2 ARE inh 0.0073µM
C[C@]12CCC3C(CC[C@H]4CC(O)CC[C@]34C)C1CC/C2=N/NC(=O)c1ccncc1 (stereo not given in full)	Nrf2 block inconclusive (no result: ClpP mod)
Cc1ccc2c(c1)cc(C(=O)Nc1ccccc1C)n2C	none (no result: TCR activator) | ClpP inh valid inconclusive
CCN(CC)CCSc1nc2ccccc2c(=O)n1-c1ccc(Cl)cc1	none (no result: TCR activator)
Cc1cc(NC(=O)CSc2nc3c([nH]c4ccccc43)c(=O)n2-c2ccc(Cl)cc2)no1	none (no result: Nrf2 block, TCR activator) | ClpP inh valid inactive
O=C(O)[C@@H]1C[C@H]2C[C@@H](CP(=O)(O)O)CC[C@H]2CN1	none (no result: ClpP mod, TCR activator, Nrf2 ARE act, miR-21 reporter)
Nc1c(C(=O)OC2CCCCC2)c2nc3ccccc3nc2n1CC1CCCO1 (stereo not given)	Nrf2 block 23µM | ClpP inh valid inconclusive
C[C@H]1CC[C@@H]2[C@@H](C)[C@H]3C(CC4C5CC=C6CC(O[C@@H]7O[C@H](CO)C(O[C@@H]8O[C@@H](C)[C@H](O)[C@@H](O)[C@H]8O)[C@H](O)[C@H]7O[C@@H]7O[C@@H](C)[C@H](O)[C@@H](O)[C@H]7O)CC[C@]6(C)C5CC[C@@]43C)N2C1 (stereo not given in full)	Nrf2 block inconclusive (no result: ClpP mod, TCR activator, Nrf2 ARE act, miR-21 reporter)
CCCCCn1c(N)c(C(=O)NCCN2CCOCC2)c2nc3ccccc3nc21	ClpP mod 8.9µM (no result: Nrf2 block) | ClpP inh valid 24µM
Nc1c(C(=O)NCc2ccco2)c2nc3ccccc3nc2n1CCN1CCOCC1	ClpP mod 10µM, Nrf2 block inconclusive, Nrf2 ARE act inconclusive | ClpP inh valid 22µM
COc1ccc(CCNC(=O)c2c(N)n(CCN3CCOCC3)c3nc4ccccc4nc23)cc1OC	Nrf2 block inconclusive
CC(=O)c1ccc(N2CCN(c3ccc4cc(S(=O)(=O)N5CCCCC5)ccc4n3)CC2)cc1	ClpP mod inconclusive (no result: TCR activator)
